{"source": "paper PMC5942357", "about": "(European Journal of Clinical Pharmacology, 2018)", "origin": "cited, not measured here", "tested_on": "activation of TGFβ", "conditions": "cited from earlier work", "data": [{"molecule": "Cc1cc(C)n(-c2cccc([C@H](CC(=O)O)CN3CC[C@@H](CCc4ccc5c(n4)NCCC5)C3)c2)n1", "note": "[GSK3008348]", "values": [{"measurement": "Effect on activation of TGFβ", "value": "inhibit the activation of TGFβ with a prolonged duration of action"}]}]}
